# Source: ChEMBL document CHEMBL3112474, “Discovery of substituted lactams as novel dual orexin receptor antagonists. Synthesis, preliminary structure-activity relationship studies and efforts towards improved metabolic stability and pharmacokinetic properties. Part 1” (Bioorg Med Chem Lett, 2014)
# The chains behind the UniProt entries cited, without tags or fusion partners.
# UniProt O43614, whole entry: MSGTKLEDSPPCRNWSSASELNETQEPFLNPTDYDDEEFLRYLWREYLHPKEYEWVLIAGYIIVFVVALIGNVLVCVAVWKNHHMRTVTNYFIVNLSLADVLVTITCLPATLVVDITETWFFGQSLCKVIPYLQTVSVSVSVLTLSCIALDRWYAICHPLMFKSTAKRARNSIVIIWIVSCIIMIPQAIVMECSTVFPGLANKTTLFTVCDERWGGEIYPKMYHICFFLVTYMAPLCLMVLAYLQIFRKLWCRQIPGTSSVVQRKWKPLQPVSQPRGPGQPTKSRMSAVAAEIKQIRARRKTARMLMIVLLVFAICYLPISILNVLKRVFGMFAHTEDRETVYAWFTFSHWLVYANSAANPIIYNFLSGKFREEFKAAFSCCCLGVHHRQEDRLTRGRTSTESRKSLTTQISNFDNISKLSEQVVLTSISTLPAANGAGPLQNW
# Biological target: Orexin receptor type 2 (Homo sapiens, UniProt O43614)
# Experiment: Antagonist activity at human orexin 2 receptor expressed in CHO cells assessed as inhibition of orexin-A-induced calcium mobilization by FLIPR assay
# Format: functional, cell-based
smiles,measurement,value
COc1cccc(OC)c1C1CCCC(=O)N1Cc1ccc2ccccc2n1 (racemic),IC50,42 nM
